# Data reported in the supplement of paper PMC11006884.
# Amino acid sequences for entries named in this document (tags omitted).
# UniProt O43521, whole entry, looked up: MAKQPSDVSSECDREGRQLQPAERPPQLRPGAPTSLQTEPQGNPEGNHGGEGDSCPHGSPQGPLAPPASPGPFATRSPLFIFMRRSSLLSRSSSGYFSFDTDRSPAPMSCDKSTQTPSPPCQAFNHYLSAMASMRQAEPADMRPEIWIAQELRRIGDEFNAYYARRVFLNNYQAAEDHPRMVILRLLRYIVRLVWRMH
# Shown are results outside the selection of targets with a hit, which stands elsewhere.
# Molecular target: BCL2L11 C12 (UniProt O43521)
# Experiment: log2 ratio of iodoacetamide-alkyne labeling of the cysteine site, DMSO over compound (competition); higher = stronger covalent engagement of the cysteine by the compound, active = 1 or more
# Conditions: 500 µM; treatment time 1 h; system: HEK293T cell lysate
# Procedure, shortened: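 After 1 h at ambient temperature with vehicle or electrophile (500 µM), HEK293T lysate (2 mg/mL) was labelled for 1 h with iodoacetamide alkyne and clicked to sCIP-TMT reagents. Pooled samples were trypsin-digested overnight at 37 °C, streptavidin-enriched, acid-eluted and analysed by Orbitrap Eclipse LC-MS/MS with FAIMS, then quantified in FragPipe over three replicates with duplicate channels. A cysteine's log2 competition ratio is its mean control-channel over mean compound-channel reporter intensity. Cysteines quantified in only one replicate were not included.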
smiles,measurement,value
COC(=O)C#Cc1ccccc1 [methyl 3-phenylpropiolate],log2 ratio of iodoacetamide-alkyne labeling,inactive: 0.38
